Experimental data from publication PMC12138978, “Mu Opioid Receptor Positive Allosteric Modulator BMS-986122 Confers Agonist-Dependent G Protein Subtype Signaling Bias” (Biochemistry, 2025).
Marks after values point to notes of the source that are not given here.

Protein sequences, listed by entry. Tags and fused reporters are not part of them.
UniProt P35372, whole entry: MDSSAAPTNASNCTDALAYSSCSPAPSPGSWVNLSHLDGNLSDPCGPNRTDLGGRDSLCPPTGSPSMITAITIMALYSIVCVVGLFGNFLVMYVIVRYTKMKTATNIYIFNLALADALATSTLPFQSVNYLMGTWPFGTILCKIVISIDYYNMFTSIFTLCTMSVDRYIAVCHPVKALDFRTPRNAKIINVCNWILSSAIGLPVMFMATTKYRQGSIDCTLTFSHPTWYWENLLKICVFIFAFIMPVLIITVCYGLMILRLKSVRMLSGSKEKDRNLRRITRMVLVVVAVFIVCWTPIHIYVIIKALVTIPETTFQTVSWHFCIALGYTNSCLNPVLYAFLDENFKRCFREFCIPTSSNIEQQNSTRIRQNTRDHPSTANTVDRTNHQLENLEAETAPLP

Key:
human MOR = human MOR (Homo sapiens, UniProt P35372); experiment: [3H]naloxone competition binding, MOR-CHO cell membranes, low-affinity buffer; settings: fold change of Ki, vehicle vs 10 μM BMS-986122
[1] = target: T1, human MOR signaling through GαoA (Homo sapiens, UniProt P35372); format: cell-based
T1 construct: host or cells: HEK 293T, transient

[2] = target: T2, human MOR signaling through GαoB (Homo sapiens, UniProt P35372); format: cell-based
T2 construct: host or cells: HEK 293T, transient

[3] = target: T3, human MOR signaling through Gαi1 (Homo sapiens, UniProt P35372); format: cell-based
T3 construct: host or cells: HEK 293T, transient

[4] = target: T4, human MOR signaling through Gαi2 (Homo sapiens, UniProt P35372); format: cell-based
T4 construct: host or cells: HEK 293T, transient

[5] = target: T5, human MOR signaling through Gαi3 (Homo sapiens, UniProt P35372); format: cell-based
T5 construct: host or cells: HEK 293T, transient

[6] = target: T6, human MOR signaling through Gαz (Homo sapiens, UniProt P35372); format: cell-based
T6 construct: host or cells: HEK 293T, transient

With CSCC[C@H](NC(=O)[C@H](Cc1ccccc1)NC(=O)CNC(=O)CNC(=O)[C@@H](N)Cc1ccc(O)cc1)C(=O)O [Met-Enkephalin, methionine-enkephalin] the “Ki (Veh)/Ki (BMS)” value (human MOR) was 6.0 **, the ΔpEC50 [1] was 0.537 ± 0.038 and the ΔpEC50 [2] was 0.578 ± 0.056. It also gave a ΔpEC50 [3] of 0.723 ± 0.049, a ΔpEC50 [4] of 0.475 ± 0.017 and a ΔpEC50 [5] of 0.639 ± 0.034. It also gave a ΔpEC50 [6] of 0.315 ± 0.091.
